The values below come from patent US10093683B2, “Factor XIa inhibitors” (Merck Sharp & Dohme Corp., priority 2014, dated 2018).

Sequences of proteins named here, by UniProt entry; tags and fusion partners are left off. Residues count along the entry.
UniProt P03951, 388-625 limits assumed: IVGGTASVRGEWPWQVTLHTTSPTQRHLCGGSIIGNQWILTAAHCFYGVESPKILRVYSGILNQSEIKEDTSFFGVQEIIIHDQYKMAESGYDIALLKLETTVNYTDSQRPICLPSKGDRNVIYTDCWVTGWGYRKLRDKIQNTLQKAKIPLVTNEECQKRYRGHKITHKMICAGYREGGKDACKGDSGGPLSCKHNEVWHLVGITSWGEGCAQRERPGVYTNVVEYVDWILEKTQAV
UniProt P03951, 19-387 partner limits assumed: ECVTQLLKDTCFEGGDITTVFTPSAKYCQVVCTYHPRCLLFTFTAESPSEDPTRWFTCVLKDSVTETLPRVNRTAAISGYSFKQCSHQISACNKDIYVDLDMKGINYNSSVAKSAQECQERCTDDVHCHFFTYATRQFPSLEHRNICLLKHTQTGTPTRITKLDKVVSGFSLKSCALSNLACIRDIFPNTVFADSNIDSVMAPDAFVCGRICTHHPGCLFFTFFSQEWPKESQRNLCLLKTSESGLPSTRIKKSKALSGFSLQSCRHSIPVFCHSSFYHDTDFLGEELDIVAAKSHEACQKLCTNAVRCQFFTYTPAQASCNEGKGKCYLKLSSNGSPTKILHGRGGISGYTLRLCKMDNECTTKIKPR
UniProt P03952, 391-638 limits assumed: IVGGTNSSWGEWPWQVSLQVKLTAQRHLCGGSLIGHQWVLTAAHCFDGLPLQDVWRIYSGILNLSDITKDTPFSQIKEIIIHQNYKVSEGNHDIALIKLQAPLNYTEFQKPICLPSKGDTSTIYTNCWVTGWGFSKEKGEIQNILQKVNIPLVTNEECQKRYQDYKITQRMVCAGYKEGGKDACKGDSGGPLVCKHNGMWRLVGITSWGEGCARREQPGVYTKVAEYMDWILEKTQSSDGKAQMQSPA
UniProt P03952, 20-390 partner limits assumed: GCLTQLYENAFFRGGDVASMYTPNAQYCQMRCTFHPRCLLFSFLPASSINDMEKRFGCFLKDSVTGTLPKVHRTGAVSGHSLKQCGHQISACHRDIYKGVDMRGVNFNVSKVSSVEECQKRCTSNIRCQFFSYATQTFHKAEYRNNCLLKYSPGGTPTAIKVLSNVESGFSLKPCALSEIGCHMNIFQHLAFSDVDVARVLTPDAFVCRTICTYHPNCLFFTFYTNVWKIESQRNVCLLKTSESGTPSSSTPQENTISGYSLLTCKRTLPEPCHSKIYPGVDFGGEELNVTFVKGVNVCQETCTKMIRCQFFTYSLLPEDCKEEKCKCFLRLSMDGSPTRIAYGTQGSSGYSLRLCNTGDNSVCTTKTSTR

Molecules are shown by their SMILES. Where two headings read alike, the source gives them in different places. Where only a bound is given, the exact number is not on record here.

For one assay, the target named is human Factor XIa (Homo sapiens (Human), UniProt P03951). Nature of the assay: Factor XIa Assay. The format is biochemical. The settings on record: read-out: FXIa Ki.
The target in another assay is Human plasma kallikrein (Homo sapiens (Human), UniProt P03952). Nature of the assay: Kallikrein Assay. The settings on record: read-out: Kallikrein, purified Human plasma kallikrein 0.5 nM, Acetyl-K-P-R-AFC, pH 7.4, Ki from IC50 by Cheng Prusoff.

On to `O=C1Nc2ccc(Cl)c(F)c2[C@@]2(CCCN(C(=O)[C@H](Cc3cccc(F)c3)NC(=O)c3cccc(-c4nn[nH]n4)c3)C2)O1`, for which the Ki on human Factor XIa is 45.5 nM; on Human plasma kallikrein it was 0.65 nM. For `O=C1Nc2ccc(Cl)cc2[C@@]2(CCCN(C(=O)[C@H](Cc3ccccc3)NC(=O)c3cccc(N4CCOCC4=O)c3)C2)O1`, the Ki at human Factor XIa stood at 661 nM. On to `CNc1cc(C(=O)N[C@@H](CC2CC2)C(=O)N2CCC[C@@]3(C2)OC(=O)Nc2ccc(Cl)c(F)c23)ccn1`, for which the Ki is 9.11 nM at human Factor XIa (tested form: TFA) and under 1.36 nM at Human plasma kallikrein (tested form: TFA). As for `O=C1CC(=O)c2cc(C(=O)N[C@@H](CC(=O)N3CCCC3)C(=O)N3CCC[C@@]4(C3)OC(=O)Nc3ccc(Cl)c(F)c34)ccc2N1`, the Ki at human Factor XIa amounted to 0.39 nM; at Human plasma kallikrein, 0.94 nM. On to `Cc1[nH]c2ccc(C(=O)N[C@@H](Cc3ccccc3)C(=O)N3CCC[C@@]4(C3)OC(=O)Nc3ccc(Cl)cc34)cc2c1C(=O)OC(C)(C)C`, for which, at human Factor XIa, the Ki was 304 nM. Same read-out and setting: as for `O=C1Nc2ccc(Cl)cc2[C@@]2(CCN(C(=O)[C@H](Cc3ccccc3)NC(=O)c3cccc(C(=O)O)c3)C2)O1`, the figure is 44.7 nM; as for `Nc1ncc(C(=O)N[C@@H](Cc2ccccc2)C(=O)N2CCC3(C2)OC(=O)Nc2ccc(Cl)cc23)cn1` (some centres unmarked), 5000 nM. In the case of `Nc1ccc(C(=O)N[C@@H](CC2CC2)C(=O)N2CCC[C@@]3(C2)OC(=O)Nc2ccc(Cl)c(F)c23)cn1`, the Ki at human Factor XIa (tested form: TFA) came to 14 nM; on Human plasma kallikrein (tested form: TFA), 1.79 nM. With `O=C1Nc2ccc(Cl)c(F)c2[C@@]2(CCCN(C(=O)[C@H](Cc3ccccc3)NC(=O)c3cc(-c4ncc[nH]4)cs3)C2)O1`, the Ki at human Factor XIa came out at 65.3 nM.

`COC(=O)NC1CCC(C(=O)N[C@@H](Cc2ccccc2)C(=O)N2CCC[C@@]3(C2)OC(=O)Nc2ccc(Cl)cc23)CC1` (some centres unmarked): on human Factor XIa, the Ki was determined as 33.7 nM.
